{"source": "patent US20060019241A1", "about": "“Na+ and CI-coupled transport system for endogenous opioid peptides” (priority 2004, published 2006)", "key": {"[1]": {"target": "Na+- and Cl--coupled transport system for endogenous opioid peptides (human cell lines ARPE-19, Tat-ARPE-19 and SK-N-SH) (human)", "assay": "cell-based or functional assay"}, "[2]": {"target": "opioid peptide transport system of rat (rMC-1 Müller cell mRNA expressed in X. laevis oocytes; primary striatal neurons) (rat)", "assay": "cell-based or functional assay"}}}
{"substance": "Deltorphin II (Tyr-D-Ala-Phe-Glu-Val-Val-Gly-NH2) (peptide)", "values": [{"measurement": "IC50 for inhibition of [3H]deltorphin II uptake in Tat-ARPE-19 cells", "setting": "[1]", "value": 38.8, "unit": "mM"}, {"measurement": "Michaelis-Menten constant (Kt) of deltorphin II uptake in Tat-ARPE-19 cells, NaCl", "setting": "[1]", "value": 46, "unit": "µM"}, {"measurement": "[3H]deltorphin II (25 nM) uptake in SK-N-SH cells, NaCl, 30 min, no inhibitor (pmol/30 min/mg protein)", "setting": "[1]", "value": 3}, {"measurement": "deltorphin II (125 nM) uptake in X. laevis oocytes injected with rMC-1 poly(A)+ mRNA", "setting": "[2]", "value": 7, "unit": "fold"}, {"measurement": "deltorphin II uptake in X. laevis oocytes injected with rMC-1 poly(A)+ mRNA", "setting": "[2]", "value": 8, "unit": "fold"}]}
